scFv variants of Ab-14 (heavy chain) against a SARS-CoV-2 spike peptide

Target: peptide PDVDLGDISGINAS, taken from heptad repeat 2 (HR2) of SARS-CoV-2 spike.

Ab-14 is the parent antibody, in scFv form: VH, then a (GGGGS)3 linker, then VL. The light chain is unchanged in all variants.
VH: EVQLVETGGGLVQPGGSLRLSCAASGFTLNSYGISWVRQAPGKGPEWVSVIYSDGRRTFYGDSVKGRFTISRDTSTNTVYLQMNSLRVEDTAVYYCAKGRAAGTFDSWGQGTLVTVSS
VL: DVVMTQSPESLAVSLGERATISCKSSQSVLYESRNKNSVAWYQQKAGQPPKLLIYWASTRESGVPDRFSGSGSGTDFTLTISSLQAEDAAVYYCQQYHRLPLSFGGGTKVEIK

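Variants in AAYL49 differ from the parent at up to three CDR positions; double and triple changes were sampled at random. AlphaSeq pools MATa yeast showing the antibodies with MATalpha yeast showing the peptide. Binding brings cells together so that they mate, and sequencing counts the barcode pairs among the diploids. Each replicate has its own calibration line, from reference interactions of the BCL2 family. Each pool was mated in three replicate cultures.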

Changes read parent residue, position, new residue, counted from the first residue of the VH shown.
Numbers give log10(Kd / nM), so 0 is 1 nM and 3 is 1 µM. Smaller is tighter.
A mean of the replicates is given; it leaves out those without a signal.
An entry "ND" has no value in the source: the pair was not observed among the diploids in that replicate. This suggests poor binding but is not conclusive.

{"changes": "Y52F+D62Q+V64D", "log10 Kd (nM) by replicate": "ND ND 3.91", "mean, log10 nM": "3.91", "signal with controls": "1/9 (2.50)"}
{"changes": "R56K+G99R+A101S", "log10 Kd (nM) by replicate": "ND ND ND", "mean, log10 nM": "ND", "signal with controls": "0/9"}
{"changes": "I34Y+V64C+G103Y", "log10 Kd (nM) by replicate": "ND 3.11 ND", "mean, log10 nM": "3.11", "signal with controls": "0/9"}
{"changes": "G61A+K65I+A102I", "log10 Kd (nM) by replicate": "ND ND ND", "mean, log10 nM": "ND", "signal with controls": "0/9"}
{"changes": "F27W+G99M+A102N", "log10 Kd (nM) by replicate": "ND ND ND", "mean, log10 nM": "ND", "signal with controls": "2/9 (3.50)"}
{"changes": "N30C+Y32Q+R56H", "log10 Kd (nM) by replicate": "ND ND ND", "mean, log10 nM": "ND", "signal with controls": "0/9"}
{"changes": "L29W+G99E+A102C", "log10 Kd (nM) by replicate": "ND ND ND", "mean, log10 nM": "ND", "signal with controls": "2/9 (4.02)"}
{"changes": "G61E+G99W+F105K", "log10 Kd (nM) by replicate": "ND ND ND", "mean, log10 nM": "ND", "signal with controls": "0/9"}
{"changes": "L29S+F59D+S63K", "log10 Kd (nM) by replicate": "ND ND 4.48", "mean, log10 nM": "4.48", "signal with controls": "2/9 (3.79)"}
{"changes": "N30A+D62N+G99S", "log10 Kd (nM) by replicate": "2.08 1.67 1.42", "mean, log10 nM": "1.72", "signal with controls": "0/9"}
{"changes": "R56D+F59Q+V64T", "log10 Kd (nM) by replicate": "ND 3.69 ND", "mean, log10 nM": "3.69", "signal with controls": "1/9 (4.13)"}
{"changes": "S53I+V64W", "log10 Kd (nM) by replicate": "ND ND ND", "mean, log10 nM": "ND", "signal with controls": "1/9 (3.76)"}
{"changes": "G33Q", "log10 Kd (nM) by replicate": "ND 2.80 4.82", "mean, log10 nM": "3.81", "signal with controls": "0/9"}
{"changes": "G26A+G33W+A101V", "log10 Kd (nM) by replicate": "ND ND ND", "mean, log10 nM": "ND", "signal with controls": "0/9"}
{"changes": "N30R+S31W+Y52T", "log10 Kd (nM) by replicate": "ND ND 3.30", "mean, log10 nM": "3.30", "signal with controls": "1/9 (3.09)"}
{"changes": "N30W+G61C+V64F", "log10 Kd (nM) by replicate": "ND ND ND", "mean, log10 nM": "ND", "signal with controls": "3/9 (3.64)"}
{"changes": "Y32D+I51S+R56F", "log10 Kd (nM) by replicate": "ND ND ND", "mean, log10 nM": "ND", "signal with controls": "2/9 (4.08)"}
{"changes": "Y32W+S63T+F105W", "log10 Kd (nM) by replicate": "ND ND ND", "mean, log10 nM": "ND", "signal with controls": "0/9"}
{"changes": "D62R+G103Q+S107G", "log10 Kd (nM) by replicate": "ND ND ND", "mean, log10 nM": "ND", "signal with controls": "0/9"}
{"changes": "Y60D+G99S+F105M", "log10 Kd (nM) by replicate": "ND ND ND", "mean, log10 nM": "ND", "signal with controls": "1/9 (2.70)"}
{"changes": "T28G+D54W", "log10 Kd (nM) by replicate": "ND ND ND", "mean, log10 nM": "ND", "signal with controls": "1/9 (2.81)"}

2 of these entries, quoted again:

{"changes": "D62R+G103Q+S107G", "log10 Kd (nM) by replicate": "ND ND ND", "mean, log10 nM": "ND", "signal with controls": "0/9"}
{"changes": "Y60D+G99S+F105M", "log10 Kd (nM) by replicate": "ND ND ND", "mean, log10 nM": "ND", "signal with controls": "1/9 (2.70)"}

As a blank, each scFv also met three strains without target: over library AAYL49, 15% of these pairings were detected, typically at 4.06 and seldom below 2.83. The control count says in how many pairings with the empty strains this scFv gave a signal, with their mean in brackets.
In this assay the parent's reference entry averaged 0.65; its copy inside this library read 4.11 (one replicate of three).

Values reported by Engelhart et al. 2022, doi:10.1038/s41597-022-01779-4 (FLAb copy).